Results from US7491827B2, “Aryl sulfonamides useful as inhibitors of chemokine receptor activity” (Millennium Pharmaceuticals, Inc., priority 2003, dated 2009).

The chains behind the UniProt entries cited, without tags or fusion partners.
UniProt P51685, whole entry: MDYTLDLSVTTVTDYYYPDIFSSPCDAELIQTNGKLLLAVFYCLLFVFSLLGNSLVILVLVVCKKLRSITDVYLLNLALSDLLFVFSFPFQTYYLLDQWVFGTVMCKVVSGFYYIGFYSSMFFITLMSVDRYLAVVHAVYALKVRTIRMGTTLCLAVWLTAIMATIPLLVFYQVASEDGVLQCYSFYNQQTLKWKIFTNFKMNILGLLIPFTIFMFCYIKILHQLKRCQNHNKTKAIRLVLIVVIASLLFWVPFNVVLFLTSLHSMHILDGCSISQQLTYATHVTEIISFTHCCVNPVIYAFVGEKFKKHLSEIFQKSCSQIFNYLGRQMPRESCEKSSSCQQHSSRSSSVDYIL

Biological target: T1, cloned human CCR8 receptor stably expressed in L1.2 cells (Homo sapiens, UniProt P51685)
T1 construct: expressed in transfected cells
Experiment: whole cell binding screen: inhibition of biotinylated human I309 binding to CCR8 (FMAT 8100 HTS)
Details: L1.2/hCCR8 cells, biotinylated human I-309, 10 point concentration response starting at 10 μM; read-out: Ki of compounds to inhibit I-309 binding to CCR8
Text: This whole cell binding screen evaluates the ability of compounds to inhibit biotinlyated human I309 binding to the cloned human CCR8 receptor stably expressed in L1.2 cells. Human CCR8 gene was amplified by PCR using PFU polymerase under standard conditions from human genomic DNA purchased from Stratagene. The PCR primers used were:
The 5′ and 3′ primers contained flanking enzyme sites (Bam Hi and Not 1,respectively), which were used to subclone the gene into pcDNA3.1. […] The CCR8 vector was then transfected into L1.2 cells (murine pre-B cells) by electroporation.
Compounds were screened using the FMAT™ 8100 HTS System (purchased from Applied Biosystems).
A suspension was prepared of L1.2/hCCR8 cells at 4.0×10^5 cells/mL in a binding buffer (Buffer consisting of Hanks Balanced Salt Solution (without phenol red), 10 mM HEPES, 0.1% Fatty Acid Free BSA, 0.02% Sodium Azide).
Dilution series of 10 mM stock concentrations of the test compounds were prepared in DMSO and further diluted into binding buffer defined above) to three times the final assay concentration.
10 point concentration response curve is constructed for each compound, starting at 10 μM (final assay concentration in Binding Buffer). […] Average fluorescence reported for each concentration was normalized to percent inhibition based on negative (no inhibitor) and positive (100 nM excess unlabeled I309 (R and D Systems)) controls.

## 4-(4-Benzoylamino-naphthalene-1-sulfonylamino)-piperidine-1-carboxylic acid tert-butyl ester [Compound A-38]
  Ki: < 500 nM
